Measurements from ChEMBL document CHEMBL1144842, “Design and campaign synthesis of piperidine- and thiazole-based histone deacetylase inhibitors” (Bioorg Med Chem Lett, 2008).

Columns and labels:
[1] = biological target: Histone deacetylase; test: Inhibition of human HDAC in HeLa cells; type: cell-based
[2] = biological target: Histone deacetylase 1 (Homo sapiens, UniProt Q13547); test: Inhibition of human recombinant HDAC1 expressed in Hi5 cells; set-up: species or system BTI-TN-5B1-4

Log IC50 [1]: -4.29 | IC50 [2]: 2450 nM
SMILES: Nc1ccccc1NC(=O)c1ccccn1
